Compound activity as filed in PubChem BioAssay.
F508del corr – CFTR F508del correction in bronchial cells; 0.36% of 350,000 active; CFBE cells, YFP halide quenching; stimulated with forskolin plus potentiator P3; % fluorescence drop versus neutral controls; activity (quench increase), % at 7.58 µM; AID 720511;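 active = mean added fluorescence quench of at least 8% versus neutral control, with both replicates also reaching 8%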;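 note: cells transiently co-express mutant CFTR-F508del with the halide-sensitive YFP; corrector assay measuring rescue of mutant channel to the surface after 24 h compound exposure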
PglD inh – inhibitors of Campylobacter jejuni PglD acetyltransferase; purified PglD enzyme, DTNB colorimetric CoA detection; inhibition, % at 12.5 µM; 0.098% of 360,000 active; in the data active = inhibition above about 16%, passing the limit was not always enough
LGR2 antag – inhibitors of bursicon-induced Drosophila LGR2 receptor cAMP signaling | HEK293 LGR2, CRE-luciferase, bursicon-stimulated, 4 h | inhibition, % at 9.99 µM | 0.35% of 380,000 active | AID 720647;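 active = drop in luminescence signal, shown as inhibition above about 50% in the replicate tests, limit read from the data, passing the limit was not always enough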;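 note: agonist challenge used bursicon conditioned medium at about half maximal strength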
UUG fidelity – alters start codon recognition fidelity in yeast. S. cerevisiae UUG-firefly luciferase reporter, luminescence/redox ratio. activity score, % at 18.7 µM. 0.13% of 350,000 active. AID 602363;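 active = replicate mean at a twofold rise or more, about +100% in these data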;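 also: firefly luciferase made from a UUG start codon reports start codon fidelity; reporter light over untreated wells divided by growth signal over untreated wells; some hits fall short of that in this replicate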
EWS-Fli inh – blocks EWS/Fli oncoprotein-driven transcription. A673 NR0B1-luciferase reporter, viability-normalised. inhibition, % at 12.6 µM. 0.67% of 350,000 active. AID 651661;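 active = mean inhibition of at least 50% after viability correction, with every replicate also passing that limit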;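 note: firefly luciferase signal divided by Alamar Blue viability fluorescence both relative to DMSO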
miR-122 sensor – blocks miR-122 activity in Huh7 sensor cells. Huh7 miR-122 Renilla luciferase sensor, 48 h; neutral wells = 0, positive control = 100. activation (reporter increase), % at 12.5 µM. 0.3% of 340,000 active;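 active = mean replicate activation score at least 90 and every replicate individually at or above 90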;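 note: higher luciferase means less miR-122 activity so hits act as miR-122 inhibitors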
Active calls of the source: *; . = not tested or not shown; [ ] = another dose, or the depositor's remark. In the library only some 1.3% were active in any assay of this set; here they are far more common.

Results follow in this order: F508del corr, UUG fidelity, EWS-Fli inh, miR-122 sensor, PglD inh, LGR2 antag
- Cc1ccc(S(=O)(=O)N2CCN(C(=O)COC(=O)CNC(=O)c3ccccc3)CC2)c(C)c1
 : 3, 13, -3, ., -1, 3
- COC(=O)c1ccc(CSc2nc3ccccc3[nH]2)o1
 : ., -26, ., 2, -3, .
- COC(=O)c1cccc(CSc2nc3ccccc3[nH]2)c1
 : 0, -15, 59*, -21, 0, -102
- CC(C)c1ccc(/C=C/C(=O)Nc2nc3ccc([N+](=O)[O-])cc3s2)cc1
 : ., -9, ., 0, 1, .
- O=[N+]([O-])c1ccc2nc(NN=Cc3ccc(O)cc3)sc2c1
 : 3, -7, -2, 0, 4, 105*
- CCOC(=O)c1ccc(NC(=O)COc2ccccc2CNCCc2ccccc2)cc1
 : -3, ., 19, 7, ., 71*
- CC(C)(C)c1ccc(C(=O)O/N=C(\N)c2ccccc2)cc1
 : 3, -58, 76*, 8, -3, 91*
- COc1ccc(C(=O)O/N=C(\N)c2ccc(Br)cc2)cc1
 : -1, -4, -96, -10, -5, -95
- COc1ccc(/C(N)=N/OC(=O)c2ccco2)cc1
 : -2, -58, 31, -2, 3, 69*
- COc1ccc(C(=O)O/N=C(\N)c2ccccc2)cc1
 : 0, -74, 21, 0, -20, 79*
- CCOc1ccc(NC(=O)CN2CCc3cc4c(cc3C2)OCCCO4)cc1OCC
 : -3, -18, 5, -3, 1, 10
- NNC(=O)c1nn(-c2ccc(Cl)cc2)ccc1=O
 : ., -21, ., 1, -3, .
- COCOc1cccc(CN2CCC2(C)C(=O)Nc2ccc(C)cc2)c1 (configuration not stated)
 : 0, -13, 17, -5, -1, -19
- COCOc1cccc(CN2CCC2(C)C(=O)Nc2ccc(C)c(O)c2)c1 (configuration not stated)
 : 8.8*, 14, -24, -10, -1, 13
- O=C(NCc1ccccc1F)[C@H]1[C@H](CO)[C@H]2Cn3c(cccc3=O)[C@H]2N1C(=O)CC1CC1
 : -2, ., -1, -5[16.7 µM], 5, 3
- O=C(CN(C1CCCCC1)S(=O)(=O)c1ccc(F)cc1)Nc1ccc2c(c1)OCO2
 : ., -6, ., 247*, -3, .
- O=C(CN(C1CCCCC1)S(=O)(=O)c1ccc(F)cc1)NCC1CCCO1 (configuration not stated)
 : 21*, -21, 20, -1, -4, -68
- O=C(CN(C1CCCCC1)S(=O)(=O)c1ccccc1)NCC1CCCO1 (configuration not stated)
 : -1, -4, 1, -1, -2, 10
- O=C(CSc1nnc(-c2cc3ccccc3cc2O)n1Cc1ccco1)c1ccc(F)cc1
 : ., -24, ., 231*, 2, .
- COc1ccc(OC)c(NC(=S)NCCCN2CCOCC2)c1
 : ., -7, ., -11, 4, -2

Part of the list above in order of count of non-hydrogen atoms, low to high.
Results follow in this order: F508del corr, UUG fidelity, EWS-Fli inh, miR-122 sensor, PglD inh, LGR2 antag
- NNC(=O)c1nn(-c2ccc(Cl)cc2)ccc1=O
 : ., -21, ., 1, -3, .
- COCOc1cccc(CN2CCC2(C)C(=O)Nc2ccc(C)c(O)c2)c1 (configuration not stated)
 : 8.8*, 14, -24, -10, -1, 13
- CCOc1ccc(NC(=O)CN2CCc3cc4c(cc3C2)OCCCO4)cc1OCC
 : -3, -18, 5, -3, 1, 10
- O=C(CSc1nnc(-c2cc3ccccc3cc2O)n1Cc1ccco1)c1ccc(F)cc1
 : ., -24, ., 231*, 2, .

Further structures:
Results follow in this order: F508del corr, UUG fidelity, EWS-Fli inh, miR-122 sensor, PglD inh, LGR2 antag
- Cc1cccc(C)c1-n1nnnc1-c1nc2cc3ccccc3cc2[nH]c1=O
 : 4, ., 54*, ., ., -9
- Cc1cccc(C)c1-n1nnnc1-c1nc2cc(Br)ccc2[nH]c1=O
 : 3, ., 11, ., ., 6
- O=C1NC(Cc2ccc(O)cc2)c2nc3cc(Cl)ccc3c(=O)n2-c2ncccc21 (configuration not stated)
 : 0, -7, -19, -6, 1, 15
- CC(=O)N1c2ccccc2N(Cc2ccc(C)cc2C)C(=O)C1(C)C
 : 2, -2, 54*, 15, 4, -22
- C=CCN1C(=O)C(C)(C)N(C(C)=O)c2ccccc21
 : 0, ., -9, ., ., -3
- C[C@@H]1CN([C@H](C)CO)C(=O)c2cc(C#CCN(C)C)cnc2O[C@@H]1CN(C)C(=O)Cc1ccccc1
 : 3, 35, -5, 10[16.7 µM], -2, 5
- CCN(CC)c1ccc(/C=C/c2ccc3ccc(OC)cc3[n+]2CC)cc1
 : 4, 37, 57*, -25, -3, 39
- O=C(C[C@H]1C=C[C@H](NC(=O)Nc2ccc3c(c2)OCO3)[C@H](CO)O1)NCCCN1CCOCC1
 : -6, -15, -9, ., 2, 2
- COc1ccc(-c2nc3ccc([N+](=O)[O-])cc3[nH]2)cc1
 : ., ., -62, ., ., .
- Cc1ccc(-c2nc3ccc([N+](=O)[O-])cc3[nH]2)cc1
 : 1, ., -16, ., ., 54*
